Reference: ChEMBL document CHEMBL4396888, “Design and Synthesis of Potent, Selective Inhibitors of Protein Arginine Methyltransferase 4 against Acute Myeloid Leukemia” (J Med Chem, 2019)

Key:
[1] = species: Homo sapiens; experiment: Selectivity ratio of IC50 for PRMT1 (unknown origin) to IC50 for PRMT4 (unknown origin)
[2] = species: Homo sapiens; experiment: Selectivity ratio of IC50 for PRMT6 (unknown origin) to IC50 for PRMT4 (unknown origin)
[3] = species: Homo sapiens; experiment: Selectivity ratio of IC50 for PRMT3 (unknown origin) to IC50 for PRMT4 (unknown origin)
[4] = species: Homo sapiens; experiment: Selectivity ratio of IC50 for PRMT8 (unknown origin) to IC50 for PRMT4 (unknown origin)
[5] = species: Homo sapiens; experiment: Selectivity ratio of IC50 for PRMT5 (unknown origin) to IC50 for PRMT4 (unknown origin)
[6] = species: Homo sapiens; experiment: Selectivity ratio of IC50 for recombinant full-length human PRMT7 expressed in Sf9 insect cells (unknown origin) to IC50 for PRMT4 (unknown origin)
[7] = tested on: MOLM-13; experiment: Antiproliferative activity against human MOLM13 cells measured after 6 days by CCK8/SRB assay; type: functional, cell-based
[8] = biological target: T1, Histone-arginine methyltransferase CARM1 (Homo sapiens) (UniProt Q86X55); experiment: Inhibition of PRMT4 in human MOLM13 cells assessed as reduction in asymmetric dimethyl arginine level measured after 96 hrs by Western blotting analysis; type: cell-based
T1 sequence (whole entry): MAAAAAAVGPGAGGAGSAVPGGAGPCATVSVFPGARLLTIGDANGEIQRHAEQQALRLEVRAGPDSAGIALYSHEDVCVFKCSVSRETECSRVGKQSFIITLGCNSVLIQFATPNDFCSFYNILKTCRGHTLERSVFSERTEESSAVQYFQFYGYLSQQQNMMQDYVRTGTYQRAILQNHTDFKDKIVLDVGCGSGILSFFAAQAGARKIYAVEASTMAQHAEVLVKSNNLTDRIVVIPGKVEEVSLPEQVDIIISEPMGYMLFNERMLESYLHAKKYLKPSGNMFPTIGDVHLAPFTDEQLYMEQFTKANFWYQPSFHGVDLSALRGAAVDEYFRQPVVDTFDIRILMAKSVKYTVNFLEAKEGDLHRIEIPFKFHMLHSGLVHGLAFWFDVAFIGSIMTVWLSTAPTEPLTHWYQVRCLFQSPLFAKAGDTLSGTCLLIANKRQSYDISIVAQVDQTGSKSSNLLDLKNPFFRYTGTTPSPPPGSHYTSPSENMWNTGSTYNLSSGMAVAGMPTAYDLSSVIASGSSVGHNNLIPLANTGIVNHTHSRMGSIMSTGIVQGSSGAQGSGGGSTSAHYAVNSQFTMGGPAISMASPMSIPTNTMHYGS

[9] = biological target: T1, Histone-arginine methyltransferase CARM1 (Homo sapiens); experiment: Inhibition of wild-type PRMT4 (unknown origin) ectopically expressed in HEK293T cells assessed as reduction in BAF155 dimethylation measured after 96 hrs by Western blotting analysis; type: cell-based
[10] = biological target: T1, Histone-arginine methyltransferase CARM1 (Homo sapiens); experiment: Inhibition of wild-type PRMT4 (unknown origin) ectopically expressed in HEK293T cells assessed as reduction in PABP1 dimethylation measured after 96 hrs by Western blotting analysis; type: cell-based
[11] = biological target: T1, Histone-arginine methyltransferase CARM1 (Homo sapiens); experiment: Inhibition of wild-type PRMT4 (unknown origin) ectopically expressed in HEK293T cells assessed as reduction in asymmetric dimethyl arginine level measured after 96 hrs by Western blotting analysis; type: cell-based

CNC[C@@H](O)CN1CCc2c(cccc2OCc2ccc(-c3nccs3)cc2)C1 was tested, and the Ratio IC50 [1] was > 100, the Ratio IC50 [2] was 380 and the Ratio IC50 [3] was > 100. For the same compound, the Ratio IC50 [4] was > 100, the Ratio IC50 [5] was > 100 and the Ratio IC50 [6] was > 100. The Activity [7] was “Dose-dependent effect”, the inhibition [8] was “Dose-dependent effect” and the inhibition [9] was “Dose-dependent effect”. For the same compound, the inhibition [10] was “Dose-dependent effect” and the inhibition [11] was “Dose-dependent effect”.
